Values quoted from earlier work as cited in patent publication US5366980A, “Use of dextromethorphan and an oxidase inhibitor to treat dermatitis” (priority 1993, dated 1994).

System: debrisoquin hydroxylase (sparteine monooxygenase)
Settings: Inaba et al 1985; cited from earlier work

SMILES: CN(C)CCOC(c1ccccc1)c1ccccc1 [diphenhydramine]
- In vitro activity in inhibiting debrisoquin hydroxylase: significant in vitro activity
